Only a part is listed here, and it is no random draw. Some structures show a salt or complex split into parts, the way the source records it. Active and inactive are the calls of the source. No stated cut-off is given here; in the data, active means activity change below about -30%; inconclusive means mostly about -25% to -30%; inactive means weaker than that.
target: L-lactate dehydrogenase A chain (Homo sapiens) (UniProt P00338); assay: qHTS assay for inhibitors of human lactate dehydrogenase; conditions: purified LDHA, NADH/diaphorase-resazurin fluorescence; hits give low values;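 further: values are at about 110 or 230 µM; plate controls were DMSO wells for no effect and wells without enzyme for full effect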
Description: LDH is a key glycolytic enzyme that catalyzes the final step in the glycolytic pathway, reducing pyruvate to lactate and regenerating NAD+ equivalents necessary for continued glycolysis. LDHA has been linked to the carcinogenesis and malignancy in numerous forms of cancers and many other diseases. Consequently, both pharma and academia have invested in significant research efforts to identify small molecule therapeutics. Such attempts have been stalled or abandoned due to limited success in discovering potent and drug-like inhibitors that can be utilized to validate LDHA in vivo as a drug target, a necessary step toward advancing such a molecule towards the clinic Towards this goal we designed and performed a quantitative high-throughput screening (qHTS) campaign to discover novel compounds that are potent inhibitors of LDHA enzyme activity and cancer cell line growth.
The assay was optimized to 1536-well plates. Briefly, 3 µL of human lactate dehydrogenase 5 (#A38558H, Meridian Life Science, Inc., Memphis, TN) in LDH assay buffer (200 mM Tris HCl pH 7.4, 100 microM EDTA and 0.01% Tween-20) was added to a black solid bottom 1536-well assay plate (Greiner Bio-One) using a BioRAPTR FRD dispenser (Beckman Coulter, Brea, CA). A 1536-well pintool dispenser outfitted with 20 nL pins (Wako Automation, San Diego, CA) was used to transfer 23 nL of DMSO-solubilized compound (both library and vehicle controls) to each 1536-well assay plate. Following compound transfer, 1 µL of substrate solution containing NADH and sodium pyruvate (Sigma-Aldrich, St. Louis, MO) in LDH assay buffer was dispensed via BioRAPTR FRD to initiate the reaction. Final concentrations in the 4 microL reaction volume were 2 nM LDHA enzyme, 0.06 mM NADH and 0.2 mM sodium pyruvate. Following a 5 minute incubation period at room temperature, 1 µL of detection reagent (C. kluyveri diaphorase (Sigma-Aldrich) and resazurin sodium salt (Sigma-Aldrich) in LDH assay buffer) was added to a total volume of 5 µL. Final concentrations of detection reagents were 0.133 mg/mL diaphorase and 37 µM resazurin. Plates were immediately transferred to a ViewLux microplate imager (PerkinElmer, Waltham, MA), and any resulting resorufin fluorescence was measured (ex540, em590 nm) at 0 and 20 minutes. Fluorescence was normalized using enzyme-free and DMSO-treated control wells on each plate.

| SMILES | activity change |
| --- | --- |
| Cc1ccc(C(=O)NCC2(N(C)C)CCCCC2)o1 | inactive: -0.183% |
| O=C(NCC1(N2CCOCC2)CCCCC1)c1c[nH]c2ccccc12 | inactive: 4.96% |
| O=[N+]([O-])c1cc([N+](=O)[O-])c(Nc2ccc(Cl)cc2)c([N+](=O)[O-])c1 | inactive: 2.02% |
| COc1ccc(C(c2nnnn2C2CCCC2)N2CCC(n3c(=O)[nH]c4ccccc43)CC2)cc1 (configuration not stated) | inactive: -2.82% |
| CN1CCC(Nc2cccc(F)c2)CC1 | inactive: -9.54% |
| COc1ccc2c(c1O)-c1c(O)c(OC)cc3c1[C@H](C2)[N+](C)(C)CC3.O=[N+]([O-])c1cc([N+](=O)[O-])c([O-])c([N+](=O)[O-])c1[O-] | inactive: 7.39% |
| O=C(NCC1(N2CCCCC2)CCCCC1)c1cncc(Br)c1 | inactive: -4.55% |
| COc1ccccc1C(=O)NCC1(N(C)C)CCCCC1 | inactive: -0.161% |
| O=C(OC1CN2CCC1CC2)c1ccc([N+](=O)[O-])cc1 (configuration not stated) | inactive: 3.51% |
| CCCCn1nnnc1C(c1ccnc2ccccc12)N1CCC(n2c(=O)[nH]c3ccccc32)CC1 (configuration not stated) | inactive: 0.424% |
| O=C(NCC1(N2CCOCC2)CCCCC1)c1cc(F)c(F)cc1Cl | inactive: -9.55% |
| CCC(c1nnnn1C(C)(C)C)N1CCC(n2c(=O)[nH]c3ccccc32)CC1 (configuration not stated) | inactive: -3.97% |
| COc1cc(OC)c(C(=O)NCC2(N(C)C)CCCCC2)cc1OC | inactive: -4.64% |
| O=[N+]([O-])c1cc([N+](=O)[O-])c(OC2CCCCC2O)c([N+](=O)[O-])c1 (configuration not stated) | inactive: 2.86% |
| CN(C)c1cccc(C(=O)NCC2(N3CCCCC3)CCCCC2)c1 | inactive: 1.73% |
| COc1ccc(CN(CCCl)CCCl)cc1Cl | inactive: 1.27% |
| CCCCn1nnnc1C(c1ccccc1OC(F)(F)F)N1CCC(n2c(=O)[nH]c3ccccc32)CC1 (configuration not stated) | inactive: -1.24% |
| CC(C)c1ccc(NC2CCN(C(=O)OC(C)(C)C)CC2)cc1 | inactive: 7.05% |
| CN1CCN(CCOC(=O)C(O)(c2ccccc2)c2ccccc2)CC1 | inactive: -11.6% |
| CC(C)c1ccc(C(=O)NCC2(N3CCOCC3)CCCCC2)cc1 | inactive: -1.24% |
| COc1ccc(NC2CCN(C(=O)OC(C)(C)C)CC2)cc1 | inactive: 7.07% |
| CCCCn1nnnc1C(c1cccc2ccccc12)N1CCC(n2c(=O)[nH]c3ccccc32)CC1 (configuration not stated) | inactive: -0.64% |
| CCc1cc(C(=O)NCC2(N3CCOCC3)CCCCC2)sc1C | inactive: 2.07% |
| COc1cc(C(=O)NCC2(N3CCCCC3)CCCCC2)ccc1OC(F)F | inactive: -4.9% |

| SMILES | activity change |
| --- | --- |
| O=C(NCC1(N2CCOCC2)CCCCC1)c1cc(=O)[nH]c2ccccc12 | inactive: -3.87% |
| CCCOc1cccc(C(=O)NCC2(N(C)C)CCCCC2)c1 | inactive: -9.15% |
| CCCOc1cccc(C(=O)NCC2(N3CCOCC3)CCCCC2)c1 | inactive: -6.61% |
| O=C(NCC1(N2CCCCC2)CCCCC1)c1cccc(C(F)(F)F)c1 | inactive: -9.18% |
| O=[N+]([O-])c1cc([N+](=O)[O-])c(NCC2CCS(=O)(=O)C2)c([N+](=O)[O-])c1 (configuration not stated) | inactive: 15.6% |
| CCOc1ccc(C(=O)NCC2(N3CCOCC3)CCCCC2)cc1 | inactive: -1.15% |
| O=C(NCC1(N2CCCCC2)CCCCC1)c1cccc([N+](=O)[O-])c1 | inactive: -8.51% |
| CSc1ccc(C(=O)NCC2(N3CCOCC3)CCCCC2)cc1 | inactive: -11.1% |
| O=c1[nH]c2ccccc2n1C1CCN(C(c2ccccc2OC(F)(F)F)c2nnnn2C2CCCC2)CC1 (configuration not stated) | inactive: -2.39% |
| N#CC1(Nc2ccccc2)CCN(CCc2ccccc2)CC1 | inactive: -1.11% |
| CCN1CCC(Nc2ccc(Cl)cc2)CC1 | inactive: 4.97% |
| O=C(NCC1(N2CCOCC2)CCCCC1)c1cc2c(s1)CCCC2 | inactive: 1.49% |
| O=C(NCC1(N2CCCCC2)CCCCC1)c1ccc(OC(F)F)cc1 | inactive: -5.7% |
| CC(C)(C)n1nnnc1C(c1ccccc1OC(F)(F)F)N1CCC(n2c(=O)[nH]c3ccccc32)CC1 (configuration not stated) | inactive: 1.2% |
| Brc1ccc(NC2CCN(Cc3cccc(Br)c3)CC2)cc1 | inactive: 5.53% |
| CC(C)(C)n1nnnc1C(c1cccc2ccccc12)N1CCC(n2c(=O)[nH]c3ccccc32)CC1 (configuration not stated) | inactive: -14.5% |
| O=C(NCC1(N2CCOCC2)CCCCC1)c1ccccc1 | inactive: -11.1% |
| Cc1cc(N(CCCl)CCCl)ccc1C=O | inactive: -2.53% |
| O=c1[nH]c2ccccc2n1C1CCN(C(c2ccccc2)c2nnnn2C2CCCC2)CC1 (configuration not stated) | inactive: -3.87% |
| CCCN1CCC(Nc2cc(OC)cc(OC)c2)CC1 | inactive: 24.3% |
| c1ccc(CN2CCC(Nc3ccccc3)CC2)cc1 | inactive: -1.94% |
| CN(C)C1(CNC(=O)c2cccc(C#N)c2)CCCCC1 | inactive: -4.18% |
| CCOC(=O)C(CC)C1=NC(C)(C)Cc2ccccc21.O=[N+]([O-])c1cc([N+](=O)[O-])c(O)c([N+](=O)[O-])c1 (configuration not stated) | inactive: -4.95% |
